Values of other authors, collected in article PMC10871162.
Read-outs that look alike come from different tables or passages of the source.

What was measured:
[1] = target: NaV1.4 IQ motif (Homo sapiens) (UniProt P35499)
[2] = target: STRA6 BP2 peptide BP2 (Danio rerio) (UniProt F1RAX4)
[3] = target: NMDA receptor NR1 C1 C1 (Homo sapiens) (UniProt Q05586)
[4] = target: NMDA receptor NR1 C1 C1 (Homo sapiens) (UniProt Q05586); remark: listed apart in the source
[5] = target: STRA6 BP2 peptide BP2 (Danio rerio) (UniProt F1RAX4); remark: listed apart in the source
[6] = target: iNOS peptide iNOS peptide (Homo sapiens) (UniProt P35228)
[7] = target: NMDA receptor NR1 C0 C0 (Homo sapiens) (UniProt Q05586)
[8] = target: NMDA receptor NR1 C0 C0 (Homo sapiens) (UniProt Q05586); remark: listed apart in the source
[9] = target: ryanodine receptor 2 CAMBD3 (Homo sapiens) (UniProt Q92736)
[10] = target: iNOS peptide iNOS peptide (Homo sapiens) (UniProt P35228); remark: listed apart in the source

Substance: calmodulin (from UniProt P0DP23)
- Kd [1]: 280 nM
- Kd [2]: 0.9 nM
- Kd [3]: 158 nM
- Kd [4]: 2 nM
- Kd [5]: 140 nM
- Kd [6]: 3.3 nM
- Kd [7]: 87 nM
- Kd [8]: 2250 nM
- Kd [9]: 530 nM
- Kd [10]: 70 nM
